A word on the Kd: it is the free concentration of one partner at which half of the binding sites on the other are occupied at equilibrium, for simple one-to-one binding.

In one experiment the target is v1653. Briefly: whole cell binding.
The next experiment has as its target v6475. The experiment is described as follows: whole cell binding.

B1: Jurkat T cells (receptor)
chain: DGNEEMGGITQTPYKVSISGTTVILTCPQYPGSEILWQHNDKNIGGDEDDKNIGSDEDHLSLKEFSELEQSGYYVCYPRGSKPEDANFYLYLRARVCENCMEMDVMSVATIVIVDICITGGLLLLVYYWSKNRKAKAKPVTRGAGAGGRQRGQNKERPPPVPNPDYEPIRKGQRDLYSGLNQRRI
Take B1: the Kd with v1653 and with v6475 was ~30 nM throughout.

The values above are taken from patent US20160355588A1 (published 2016).
